These results are taken from patent US8796297B2, “4-substituted-2-amino-pyrimidine derivatives” (AbbVie Inc., priority 2009, dated 2014).

Amino acid sequences for entries named in this document (tags omitted). A change or cut given only in a name is not applied to a line headed by its entry.
UniProt Q9QYN8: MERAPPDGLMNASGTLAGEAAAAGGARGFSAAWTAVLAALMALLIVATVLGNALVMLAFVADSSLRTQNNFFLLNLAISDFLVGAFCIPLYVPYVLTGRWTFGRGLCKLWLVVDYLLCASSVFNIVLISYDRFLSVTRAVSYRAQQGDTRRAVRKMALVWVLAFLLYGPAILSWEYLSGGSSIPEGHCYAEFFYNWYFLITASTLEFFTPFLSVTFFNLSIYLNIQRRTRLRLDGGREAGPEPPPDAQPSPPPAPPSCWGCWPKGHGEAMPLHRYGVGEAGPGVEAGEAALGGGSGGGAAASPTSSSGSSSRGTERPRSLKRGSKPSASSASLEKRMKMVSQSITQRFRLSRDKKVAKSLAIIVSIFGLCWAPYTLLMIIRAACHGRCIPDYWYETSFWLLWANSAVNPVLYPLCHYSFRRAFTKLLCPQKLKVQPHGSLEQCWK

Structures are written as SMILES.

In experiment [1] the target is T1, rat histamine H3 receptor (Rattus norvegicus (Rat), UniProt Q9QYN8). Nature of the experiment: Radioligand competition binding assay, rat H3 receptor. Conditions: [3H]-N-α-methylhistamine competition binding. As for the experimental part:
To determine the effectiveness of representative compounds of this invention as histamine-3 receptor ligands (H3 receptor ligands), the following tests were conducted according to previously described methods (see European Journal of Pharmacology 1990, 188, 219-227; Journal of Pharmacology and Experimental Therapeutics 1995, 275, 598-604; Journal of Pharmacology and Experimental Therapeutics 1996, 276, 1009-1015; and Biochemical Pharmacology 1973, 22, 3099-3108).
The rat H3 receptor was cloned and expressed in cells, and competition binding assays carried out, according to methods previously described (see Esbenshade, et al. Journal of Pharmacology and Experimental Therapeutics 2005, 313, 165-175; Esbenshade et al., Biochemical Pharmacology 2004, 68, 933-945; and Krueger, et al. Journal of Pharmacology and Experimental Therapeutics 2005, 314, 271-281). […]
Membrane preparations were incubated with [^3H]-N-α-methylhistamine (0.5-1.0 nM) in the presence or absence of increasing concentrations of ligands for H3 receptor competition binding. […] Bound radiolabel was determined by liquid scintillation counting. For all of the radioligand competition binding assays, IC50 values and Hill slopes were determined by Hill transformation of the data and pKi values were determined by the Cheng-Prusoff equation.
(Displacement assays read how much labelled ligand stays bound in the presence of the test substance.)

Experiment [2] concerns the target T1, rat histamine H3 receptor. Nature of the experiment: FLIPR functional assay (Ca2+, HEK-293 cells coexpressing Gαqi5), rat H3 receptor. The format is cell-based. Conditions: FLIPR agonist potency. An excerpt: There are many methods available to show the effectiveness of compounds as histamine H3 receptor ligands. Histamine H3 receptors from mammalian species have been cloned. Methods to clone, express, and assess the potency and functional activity of such cloned genes are well known to those skilled in the art of molecular biology. […] For partial agonist or full agonist ligands, addition of compound to the cells led to an increase in intracellular Ca^+2 which was detected by FLIPR (Fluorescence Imaging Plate Reader; Molecular Devices, Sunnyvale, Calif.) technology. The fluorescence intensities measured before addition of the test compound were subtracted from the fluorescence intensities at later time points. Peak response values determined at each concentration of ligand were expressed as a percentage of the response obtained with a maximal concentration (1 μM) of the full agonist R-α-methyl-histamine (RAMH). Concentration versus response data were analyzed to obtain compound potency as EC50 values for full and partial agonists.

Regarding `Nc1nccc(N[C@H]2CC[C@H](N)CC2)n1` [Example 16, Trans-N^4-(4-aminocyclohexyl)pyrimidine-2,4-diamine], the Ki (usually a dissociation constant, usually derived from enzyme kinetics or from competition with a known ligand) in experiment [1] was determined as 141 nM. Also, the EC50 (in general, the concentration needed to bring the measured effect to its halfway point) in experiment [2] is 448 nM.
